Data: PubChem BioAssay (NCI)
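These data come from cells grown in 96-well plates and exposed to compound for 48 hours at five concentrations. GI50 marks 50% less growth. TGI denotes the concentration required for complete inhibition of growth.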

Test system: MDA-MB-468 breast
Assay: DTP human tumour cell line panel, 48 h

In the case of `NC(Cc1ccccc1N(CCCl)CCCl)C(=O)O` (configuration not stated), the GI50 is reported as 2.68 µM and the TGI is reported as 8.58 µM.
